Converted amounts (≈) assume the structure as drawn.

This note sets out measurements from patent publication US10450421B2, “Synthesis of multiarm poly[(R)-3-hydroxybutyrate] and its derivatives” (AGENCY FOR SCIENCE, TECHNOLOGY AND RESEARCH, priority 2015, dated 2019).

The subject of experiment [1] is S. aureus. Nature of the experiment: Antimicrobial test, MIC against S. aureus. The experiment is classed as cell-based. The note with it: Gram-positive bacteria S. aureus (n = 2). The protocol:
(§1) The solutions based on the Q-PHB-PDMAEMA were tested for efficacy in killing clinically significant pathogens: the […] and Gram-negative bacteria (E. coli).

Experiment [2] deals with E. coli. As to the kind of experiment: Antimicrobial test, MIC against E. coli. The class given is cell-based. The conditions noted are these: Gram-negative bacteria E. coli (n = 2). The method, then:
as §1

The term MIC denotes the smallest concentration in the dilution series that meets the test's criterion for growth inhibition. Low values mean greater potency, high ones weaker potency. As to `CC[C@H](C)[C@H](N)C(=O)N[C@@H](CC(C)C)C(=O)N1CCC[C@H]1C(=O)N[C@@H](Cc1c[nH]c2ccccc12)C(=O)N[C@@H](CCCCN)C(=O)N[C@@H](Cc1c[nH]c2ccccc12)C(=O)N1CCC[C@H]1C(=O)N[C@@H](Cc1c[nH]c2ccccc12)C(=O)N[C@@H](Cc1c[nH]c2ccccc12)C(=O)N1CCC[C@H]1C(=O)N[C@@H](Cc1c[nH]c2ccccc12)C(=O)N[C@@H](CCCNC(=N)N)C(=O)N[C@@H](CCCNC(=N)N)C(N)=O` [Indolicidin], the values for the MIC in experiment [1] and in experiment [2] were 130 µg/mL (≈ 68.2 µM) and greater than 250 µg/mL, respectively.
